From patent US12280118B2 (Kyowa Kirin Co., Ltd., priority 2017, dated 2025) come the findings set out here.

One experiment relates to human PBMC. In words: Ex vivo assay: cytokine production of human PBMC. In kind it is cell-based. Conditions: human PBMC in autologous plasma with OKT3, 5 days, culture supernatant. The procedure: Production amounts of various cytokines of human PBMC stimulated with various IL-2 were measured by a method below.
After dispensing human peripheral blood into a 15 mL centrifuge tube, the human peripheral blood was centrifuged at 2000 rpm for 10 minutes, and a supernatant thereof was collected to obtain human plasma. The obtained plasma was sterilized by filtration using a 0.22 μm filter. The same amount of PBS as the collected plasma was added to the peripheral blood and diluted, and then human PBMC was obtained by a density gradient centrifugation method using Ficoll Paque plus (manufactured by GE Healthcare).
The obtained human PBMC was suspended in autologous plasma at 5×10^6 cells/mL, and an anti-CD3 antibody OKT3 was added thereto to obtain a final concentration of 0.5 μg/mL. […] After culturing at 37° C. under 5% CO2 for 5 days, the culture supernatant was collected, and a production amount of cytokine in the supernatant was quantified using Human Th1/2/17 CBA kit (manufactured by BD Biosciences).

The test system of the next experiment is human Tresp. Kind of experiment: Inhibitory activity of IL-2-stimulated Tregs on Tresp proliferation. In kind it is cell-based. Conditions: Tregs cultured 7 days with IL-2 (final concentration 65 nM); compared with unstimulated Treg. The procedure:
All cells were separated from each other by the same lot of frozen human PBMC.
Seven days before the assay, Tregs were separated from the frozen human PBMCs as described in Example 13. […] The obtained cells were used as IL-2-stimulated Tregs.
The cell preparation on the day of test was performed as follows. Tregs were separated from the frozen human PBMC by the method described in Example 13 and used as unstimulated Tregs. After CD3^+CD25^− T cells were separated from the frozen human PBMC, by using EasySep Human T Cell Enrichment Kit (manufactured by […] Technologies) and EasySep Human Pan-CD25 Positive Selection and Depletion Kit (manufactured by […] Technologies), the cells were labeled by reacting Celltrace violet (manufactured by Thermo Fischer […]) diluted to 40 μmol/L with a 10% FBS-containing RPMI1640 medium, at room temperature for 5 minutes. […]
Thereafter, the cells were stained with anti-human CD4-APC (manufactured by BD Pharmingen) and anti-human CD8-PE (manufactured by BD Pharmingen) (at room temperature for 15 minutes), and then various fluorescent intensities were measured by flow cytometer FACS Canto II (manufactured by BD Biosciences).
The obtained data was exported as FCS file, and then analyzed using data analysis software FLowJo (TreeStar, version 7.6.5) for a division index value, which is an average number of cell divisions in CD4^+ Tresp or CD8^+ Tresp.

Turning to “IL-2 (P): commercially available IL-2 manufactured by peprotech”, in the experiment with human PBMC, the “production amount of IFNγ” value was “promoted”, the “production amount of IL-4” value is on record as “promoted”, the “production amount of IL-6” value is on record as “promoted” and the “production amount of IL-10” value is “promoted”. Also, the “production amount of TNFα” value in the experiment on human PBMC is “promoted”. Moreover, in the experiment with human Tresp, the “proliferation of Tresp in the presence of IL-2-stimulated Tregs” value was “inhibited”.
